# Binding of CDR-mutated scFvs to a peptide of the spike HR2 region

Target peptide (SARS-CoV-2 spike, HR2 region): PDVDLGDISGINAS

Each scFv is VL, the linker GGGGSGGGGSGGGGS, VH, as in the parent Ab-91, and differs from it in the CDRs of the heavy chain only.
VL: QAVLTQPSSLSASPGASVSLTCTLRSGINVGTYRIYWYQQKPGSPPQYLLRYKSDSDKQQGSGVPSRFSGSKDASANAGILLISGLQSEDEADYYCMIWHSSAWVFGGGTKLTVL
VH: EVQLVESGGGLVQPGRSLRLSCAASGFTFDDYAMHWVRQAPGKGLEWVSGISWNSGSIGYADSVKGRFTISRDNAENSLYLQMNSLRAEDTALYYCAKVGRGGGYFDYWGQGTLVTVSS

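The library (AAYL51) carries one to three amino acid substitutions per variant, with no insertions or deletions. In AlphaSeq, yeast of one mating type display the scFv and yeast of the other type display the target. Mating (16 h, 30 °C) was followed by selection of diploids and sequencing of their barcodes. A regression on co-assayed BCL2-family reference pairs converts the normalised counts of each replicate to an apparent Kd. Each pool was mated in three replicate cultures.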

Variants are written as CDR1, CDR2 and CDR3 of the heavy chain (limits as in the source). Parent: GFTFDDYAMH, GISWNSGSIGYADSVK, VGRGGGYFDY. Affinities are written as log10 Kd with Kd in nM; a lower number is a better binder. Replicates are averaged; those with no signal do not enter the mean. "ND" means that the variant was in the library but no mating with the target was seen in that replicate; the authors take this as a sign of poor binding, and no number exists. Nonspecific signal, from three strains lacking the peptide, appeared in 21% of pairings of library AAYL51, centred on 4.54 (5% of these signals below 3.26); values are not corrected for it. Also given: how often the same scFv was detected with the empty control strains. For reference, the parent read 1.86 as the reference entry and 0.88 as a member of this library.

Variant GFKFDDYAMS | GWSWNSGSIGYADSVK | VGRGGGYFDY gave 4.81, ND, 3.76 (mean 4.29; controls 0 of 9).
Variant GFVFQDYAMH | GISWNSGSIGYADSVK | VGRGGRYFDY gave 0.92, 0.99, 0.36 (mean 0.76; controls 3 of 9).
Variant GFTFDDYAMH | GISWNSFAIGYADSVK | VGVGGGYFDY gave 2.29, 2.38, 2.03 (mean 2.23; controls 4 of 9).
Variant GFTFYDYAMH | GISMNSGSIGYAFSVK | VGRGGGYFDY gave 2.20, 3.01, 2.32 (mean 2.51; controls 0 of 9).
Variant GFTFDDLAMH | GISWNSGSIGYADSVK | AGRGGGYFDY gave ND, ND, ND (controls 1 of 9).
Variant SFTFDTYAMH | GISWNSGSIGYADSVK | VNRGGGYFDY gave 3.08, 2.86, 2.62 (mean 2.86; controls 4 of 9).
Variant GPTFDDYAFH | GISRNSGSIGYADSVK | VGRGGGYFDY gave 4.81, 5.43, 5.07 (mean 5.11; controls 7 of 9).
Variant GFTFDLYAMH | GISWNSGSIGYADSVC | VGRGDGYFDY gave ND, ND, 2.32 (controls 0 of 9).
Variant GFTFDDYAMH | GISWDSGSIGYADSVK | VGRGGWYFQY gave ND, ND, ND (controls 0 of 9).
Variant GFTFDDYAMH | GITWNSGSIGYAWSVK | VGRGGGYFDQ gave 4.77, ND, ND (controls 5 of 9).
Variant GFTFDDYAMH | GISWNSGSIGHAQSFK | VGRGGGYFDY gave ND, ND, ND (controls 1 of 9).
Variant GFTFDDYAMH | GISWNSGSIGYAWSVK | VTRGQGYFDY gave 3.42, 2.21, 2.56 (mean 2.73; controls 1 of 9).
Variant GFTFDDYAMH | GISMNSFSIGYADSVK | VGGGGGYFDY gave 2.68, 2.54, 2.39 (mean 2.53; controls 4 of 9).
Variant GFTMDDYAMH | GISWNSGSIGYADSVK | MGRGGGYFKY gave ND, 3.03, ND (controls 1 of 9).
Variant GFTFDDYAMH | GISWNSGSIGYADSVK | VGRMGGQFFY gave 4.49, ND, ND (controls 0 of 9).
Variant GFTFDDYANH | GISWNSGSIGYASSVK | VGRGGGYFDY gave 3.50, ND, ND (controls 5 of 9).
Variant GFTFDSYAMH | GISWNTGSIGYADSVK | VGRGGGYFDY gave ND, 4.90, ND (controls 1 of 9).
Variant GFTFDDNAMH | GISWNSGSIGPADSVK | VGRGGGYFDY gave 4.63, 5.36, ND (mean 4.99; controls 3 of 9).
Variant GFTFDDNAMH | GISWNSGSIGYADSTK | VGRGGGIFDY gave ND, 4.61, 4.10 (mean 4.35; controls 0 of 9).
Variant GFTFDDYAMH | GISWNEGDIGYVDSVK | VGRGGGYFDY gave ND, ND, ND (controls 0 of 9).
Variant GFTFDQYAMH | GISWNSGSIGYADSVK | VGRGGGYFPY gave 2.61, 3.03, 3.06 (mean 2.90; controls 2 of 9).
Variant CFTFDDYNMH | GISWNSGIIGYADSVK | VGRGGGYFDY gave 4.21, ND, ND (controls 2 of 9).
Variant GFTFDDYAMH | GISWLSKSIGYADSVK | VGRGRGYFDY gave 3.77, ND, ND (controls 4 of 9).
Variant GFFFDDYVLH | GISWNSGSIGYADSVK | VGRGGGYFDY gave ND, ND, ND (controls 3 of 9).
Variant GFTFDDYAMH | GISWCSGSIGYADSVK | VGRGGHYFDY gave ND, ND, ND (controls 0 of 9).
Variant GFTFDDYAML | GISWNSGSIGYADSVK | VGRFGGYFMY gave ND, ND, ND (controls 1 of 9).
Variant GFTWDDYAMH | GISANSGSIGYADSVK | VGRGGGFFDY gave 4.03, 2.99, 2.36 (mean 3.13; controls 2 of 9).
Variant GFTFDDYAMH | GISWNSGSVGYADSVK | VGRGGGYFDY gave 3.29, ND, 3.58 (mean 3.43; controls 2 of 9).
Variant GFTFDDYYCH | GYSWNSGSIGYADSVK | VGRGGGYFDY gave 6.59, ND, 5.87 (mean 6.23; controls 6 of 9).
Variant GFTFDDYAHH | GISWNSGSIGRADSVK | VGRGGGYFDY gave 4.08, ND, ND (controls 3 of 9).
Variant GFTFDDYAMH | GISWNSGSIGYACSVK | VGRGGGYRDD gave 5.41, ND, ND (controls 1 of 9).
Variant GFTFDHYAMH | GISWNSKSIGYADSVK | VGEGGGYFDY gave 2.22, 2.36, 1.74 (mean 2.11; controls 3 of 9).
Variant AFTFDAYAFH | GISWNSGSIGYADSVK | VGRGGGYFDY gave ND, ND, ND (controls 1 of 9).
Variant GFRDDDYAMH | GISWNSGSIGYADSVK | VGRGVGYFDY gave 5.32, 4.64, ND (mean 4.98; controls 3 of 9).
Variant GFTCDDYAMH | NISWNSGSIGYADSVK | VGRGGDYFDY gave ND, ND, ND (controls 3 of 9).
Variant GFTFDDYAMH | TISWNYGSIGYADSVK | VGRGGGYFDY gave ND, ND, ND (controls 0 of 9).
Variant GFTFDDYAMH | GISMNAGSIGYADSVK | VGRGGGGFDY gave ND, ND, 3.33 (controls 1 of 9).
Variant GFTHDDYAMH | GISWNSGSIGYADSVK | VNRGGGRFDY gave 1.53, 2.00, 1.97 (mean 1.83; controls 1 of 9).
Variant GFTFDIYAME | GISWNSGSIGYADSVK | YGRGGGYFDY gave ND, 5.89, ND (controls 2 of 9).
Variant GFTFDDPAMH | GISWNSGSIGYADSVK | VGRVGGYFDQ gave ND, 4.46, 5.77 (mean 5.11; controls 4 of 9).
Variant GFTRDDYAMH | GISWNSGSCGYADSVK | DGRGGGYFDY gave 5.97, ND, 4.75 (mean 5.36; controls 4 of 9).
Variant GFTFDVYAMH | GISWNSLSIGYADSVK | VGRGGGYFDY gave 1.64, 1.36, 0.75 (mean 1.25; controls 2 of 9).
Variant GFTFDDYAMD | GISWWSGSIGYADSVK | VNRGGGYFDY gave 4.18, 6.32, 5.18 (mean 5.22; controls 3 of 9).
Variant GFTIDDYAMH | GISWNPGSNGYADSVK | VGRGGGYFDY gave ND, 5.96, ND (controls 1 of 9).

7 of these entries, quoted again:

GFTFDDYAMH | GISMNAGSIGYADSVK | VGRGGGGFDY: ND, ND, 3.33 (controls 1 of 9).
GFTCDDYAMH | NISWNSGSIGYADSVK | VGRGGDYFDY: ND, ND, ND (controls 3 of 9).
GFTFDQYAMH | GISWNSGSIGYADSVK | VGRGGGYFPY: 2.61, 3.03, 3.06 (mean 2.90; controls 2 of 9).
GFTFDDNAMH | GISWNSGSIGYADSTK | VGRGGGIFDY: ND, 4.61, 4.10 (mean 4.35; controls 0 of 9).
GFTFDDYAMH | GISWNSGSIGHAQSFK | VGRGGGYFDY: ND, ND, ND (controls 1 of 9).
GFTFDDNAMH | GISWNSGSIGPADSVK | VGRGGGYFDY: 4.63, 5.36, ND (mean 4.99; controls 3 of 9).
GFTFDDYAMH | GISWCSGSIGYADSVK | VGRGGHYFDY: ND, ND, ND (controls 0 of 9).

From the AlphaSeq antibody data of Engelhart et al. 2022 (doi:10.1038/s41597-022-01779-4), copy in the FLAb collection.